Series [1] deals with T1, CYP1B1 S127A (Homo sapiens, UniProt Q16678, S127A).
T1 sequence (Q16678 1-543 S127A): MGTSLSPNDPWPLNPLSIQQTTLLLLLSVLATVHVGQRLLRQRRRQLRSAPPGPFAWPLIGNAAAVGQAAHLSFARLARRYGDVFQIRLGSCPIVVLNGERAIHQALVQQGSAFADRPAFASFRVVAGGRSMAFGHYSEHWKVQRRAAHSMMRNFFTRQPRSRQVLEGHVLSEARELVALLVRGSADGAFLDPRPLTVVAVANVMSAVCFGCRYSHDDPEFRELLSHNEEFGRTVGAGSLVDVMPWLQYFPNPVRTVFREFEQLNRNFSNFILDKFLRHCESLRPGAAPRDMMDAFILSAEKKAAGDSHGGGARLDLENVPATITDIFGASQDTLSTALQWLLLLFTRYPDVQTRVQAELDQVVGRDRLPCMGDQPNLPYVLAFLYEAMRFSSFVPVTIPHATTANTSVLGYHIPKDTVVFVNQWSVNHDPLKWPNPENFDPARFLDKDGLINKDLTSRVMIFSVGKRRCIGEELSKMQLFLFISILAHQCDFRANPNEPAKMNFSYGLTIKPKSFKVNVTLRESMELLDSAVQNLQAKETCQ
Briefly: In cell CYP1B1 activity assay, S127A variant.

The target of series [2] is T2, CYP1B1 F134L (Homo sapiens, UniProt Q16678, F134L).
T2 sequence (Q16678 1-543 F134L): T1 sequence (Q16678 1-543 S127A) with A127S, F134L
Kind of series: In cell CYP1B1 activity assay, F134L variant.

The target of series [3] is T3, CYP1B1 Q332E (Homo sapiens, UniProt Q16678, Q332E).
T3 sequence (Q16678 1-543 Q332E): T1 sequence (Q16678 1-543 S127A) with A127S, Q332E
Kind of series: In cell CYP1B1 activity assay, Q332E variant.

In series [4] the target is T4, CYP1B1 D333N (Homo sapiens, UniProt Q16678, D333N).
T4 sequence (Q16678 1-543 D333N): T1 sequence (Q16678 1-543 S127A) with A127S, D333N
Kind of series: In cell CYP1B1 activity assay, D333N variant.

Series [5] concerns the target T5, CYP1B1 S269A (Homo sapiens, UniProt Q16678, S269A).
T5 sequence (Q16678 1-543 S269A): T1 sequence (Q16678 1-543 S127A) with A127S, S269A
Briefly: In cell CYP1B1 activity assay, S269A variant.

In series [6] the test system is cytochrome P450 enzymes in phLMs. Kind of series: Inhibition of cytochrome P450 enzymes in pooled human liver microsomes (phLM). (In general: Microsomes from liver hold many membrane-bound enzymes, among them those of drug oxidation.)
For series [7], the target named is T6, CYP1B1 (Homo sapiens, UniProt Q16678).
T6 sequence (Q16678 1-543): T1 sequence (Q16678 1-543 S127A) with A127S
Kind of series: In cell activity assay for CYP1B1 (7-ethoxyresorufin conversion, HEK293 T-Rex cells). To be noted: p IC50(uM), negative log of the IC50 in μM.

The structures appear in SMILES notation. Substitutions are numbered along the chain they refer to. Several values for one entry are separate records, joined by “and”; a condition that tells them apart may be missing. Equal values may be shown once.

As for `O=c1cc(-c2ccccc2)oc2c1ccc1ccccc12` [ANF, α-naphthoflavone, reference compound], the IC50 in series [1] was 0.009 µM; in series [2] it was 0.07 µM; in series [3] it was 1.13 µM; in series [4], 4.4 µM.
In the case of `COc1cc(/C=C/c2ccc(OC)cc2OC)cc(OC)c1` [Compound 1, reference compound], the IC50 in series [1] amounted to 0.0025 µM; in series [2] it was 0.87 µM; in series [5], 0.18 µM; in series [3], 0.298 µM; in series [4] it was 8.1 µM. In addition, the “relative enzyme activity in phLMs” value in series [6] (fraction of control (1 = no inhibition), log conc 1.47712) amounted to 0.4048; in series [6] (fraction of control, log conc 0.273001), 0.9521; in series [6] (fraction of control, log conc 0.875061), 0.7398; in series [6] (fraction of control, log conc -0.32906), 1.01; in series [6] (fraction of control, log conc -0.93112), 1.028; in series [6] (fraction of control, log conc -1.53318), 0.996. In series [6] (fraction of control, log conc -2.13524), the “relative enzyme activity in phLMs” value came to 0.9899.
On to `COc1ccc(C=Cc2ccncc2)c(OC)c1` [Compound 3], for which, in series [1], the IC50 is 0.048 µM and the “Ratio IC50 (mutant)/ IC50 (WT), S127A” value worked out at 160. Besides, in series [2], half-maximal inhibition (IC50) was put at 0.015 µM and the “Ratio IC50 (mutant)/ IC50 (WT), F134L” value is given as 50. Also, in series [5], the IC50 stood at 0.0021 µM and the “Ratio IC50 (mutant)/ IC50 (WT), S269A” value is on record as 7. Besides, in series [3], the half-maximal inhibitory concentration (IC50) was found to be 0.0508 µM and the “Ratio IC50 (mutant)/ IC50 (WT), Q332E” value amounted to 169. In addition, in series [4], the 50% inhibitory concentration (IC50) was found to be 0.7 µM and the “Ratio IC50 (mutant)/ IC50 (WT), D333N” value is listed as 2333. In addition, the “SI (1B1:phLM)” value in series [6] (ratio of IC50 phLM to CYP1B1, for complexes 4–6 IC50 (light)) was > 1000 and 1077. In series [7], this molecule showed an IC50 of 0.000316 µM.

By IC50 is commonly meant the point on the concentration scale where inhibition reaches its midpoint. The low end stands for greater potency, the high end for weaker potency.

Source of the values: publication PMC9233675, “Ru(II) photocages enable precise control over enzyme activity with red light” (Nature Communications, 2022).
